We go through two compounds from PubChem BioAssay AID875 (National Center for Advancing Translational Sciences (NCATS), 2007).

Sequences of proteins named here, by UniProt entry; tags and fusion partners are left off.
UniProt P38398, whole entry: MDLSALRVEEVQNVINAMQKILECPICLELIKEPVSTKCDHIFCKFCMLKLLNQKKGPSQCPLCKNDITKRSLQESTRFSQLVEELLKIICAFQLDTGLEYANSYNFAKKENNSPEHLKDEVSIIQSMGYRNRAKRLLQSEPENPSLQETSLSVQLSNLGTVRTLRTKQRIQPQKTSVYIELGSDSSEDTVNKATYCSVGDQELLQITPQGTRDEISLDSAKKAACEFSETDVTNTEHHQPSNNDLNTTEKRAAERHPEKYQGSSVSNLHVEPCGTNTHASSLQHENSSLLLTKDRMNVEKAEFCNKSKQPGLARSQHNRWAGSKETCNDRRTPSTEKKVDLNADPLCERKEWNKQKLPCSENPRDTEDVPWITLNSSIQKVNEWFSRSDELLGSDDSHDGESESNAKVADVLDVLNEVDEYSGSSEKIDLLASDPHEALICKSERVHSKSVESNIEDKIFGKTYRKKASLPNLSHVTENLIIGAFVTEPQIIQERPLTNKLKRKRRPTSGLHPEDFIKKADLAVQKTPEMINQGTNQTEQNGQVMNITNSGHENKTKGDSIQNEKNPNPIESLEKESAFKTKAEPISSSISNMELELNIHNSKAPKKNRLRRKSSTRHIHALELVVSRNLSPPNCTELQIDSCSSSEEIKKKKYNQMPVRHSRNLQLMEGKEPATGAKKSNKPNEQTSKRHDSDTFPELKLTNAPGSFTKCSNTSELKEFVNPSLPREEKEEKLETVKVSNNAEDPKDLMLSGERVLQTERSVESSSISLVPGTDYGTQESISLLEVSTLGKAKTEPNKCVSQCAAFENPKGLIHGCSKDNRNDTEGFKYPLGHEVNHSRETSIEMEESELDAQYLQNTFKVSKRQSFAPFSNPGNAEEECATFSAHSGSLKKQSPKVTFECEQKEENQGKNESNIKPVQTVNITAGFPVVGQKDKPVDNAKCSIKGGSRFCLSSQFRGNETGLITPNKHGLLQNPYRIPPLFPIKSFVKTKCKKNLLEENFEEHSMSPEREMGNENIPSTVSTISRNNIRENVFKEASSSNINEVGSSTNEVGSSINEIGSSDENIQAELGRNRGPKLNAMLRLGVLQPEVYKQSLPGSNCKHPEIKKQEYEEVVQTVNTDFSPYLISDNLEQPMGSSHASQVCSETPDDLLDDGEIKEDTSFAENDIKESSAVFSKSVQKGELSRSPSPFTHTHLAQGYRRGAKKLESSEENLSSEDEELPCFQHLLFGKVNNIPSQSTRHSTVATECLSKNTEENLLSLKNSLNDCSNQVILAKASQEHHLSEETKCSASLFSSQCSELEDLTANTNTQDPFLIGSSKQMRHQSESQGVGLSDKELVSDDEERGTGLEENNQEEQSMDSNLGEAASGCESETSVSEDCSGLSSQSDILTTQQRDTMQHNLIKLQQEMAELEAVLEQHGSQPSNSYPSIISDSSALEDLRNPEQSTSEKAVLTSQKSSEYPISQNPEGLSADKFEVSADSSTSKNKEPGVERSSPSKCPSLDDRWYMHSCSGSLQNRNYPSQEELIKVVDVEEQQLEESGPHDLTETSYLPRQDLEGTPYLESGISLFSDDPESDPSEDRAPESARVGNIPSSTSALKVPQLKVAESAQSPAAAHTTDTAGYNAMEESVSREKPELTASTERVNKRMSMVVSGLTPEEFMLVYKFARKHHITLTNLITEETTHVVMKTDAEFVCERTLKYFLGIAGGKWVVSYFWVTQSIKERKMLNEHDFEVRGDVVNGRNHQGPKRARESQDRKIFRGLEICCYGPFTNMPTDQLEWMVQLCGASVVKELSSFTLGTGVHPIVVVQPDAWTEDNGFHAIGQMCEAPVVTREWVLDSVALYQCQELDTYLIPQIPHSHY

This is a selection; strong and weak results do not stand in their true shares. Active and inactive are the calls of the source. Calls follow the shape of the dose curve; as a rule, active = well fitted inhibition curve with a large enough effect; inconclusive = small, poorly fitted or top-dose-only effect; inactive = no such curve, though single readings can be large or run the other way.

The target of this assay is Breast cancer type 1 susceptibility protein (Homo sapiens) (UniProt P38398). Kind of assay: qHTS Assay for Inhibitors of BRCT-Phosphoprotein Interaction (Green Fluorophore).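 Also: plate controls were peptide without protein for full effect.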 To be noted: BRCA1 BRCT-phosphopeptide binding, green fluorescence polarization; at 76.9 µM (top of the series). On the procedure:
NIH Molecular Libraries Screening Centers Network [MLSCN]
NIH Chemical Genomics Center [NCGC]
PI Name: Natarajan, Amarnath; University of Texas
A complex of BRCT (C-terminal portion of BRCA1, MW ~35 kDa, His-tagged) and fluorescently labeled pBACH1 phosphorylated 10 aa peptide fragment of BACH1, a helicase implicated in DNA repair, is incubated with library members. Inhibitors of BRCT-pBACH1 binding are detected by a decrease in the fluorescence polarization (FP) of the fluorophore. In order to minimize the effect of fluorescence artifacts and to increase the overall robustness of the screen, the compound library members were incubated in separate reactions with fluorescein labeled probe-protein complexes. Protein and labeled probes were supplied by Dr. Amarnath Natarajan, Department of Pharmacology and Toxicology, University of Texas Medical Branch Galveston, TX.
Assay Buffer: 16mM Na2HPO4, 4 mM NaH2PO4, 150 mM NaCl, 1 mM EDTA, 1 mM DTT, 0.02% NaN3, and 0.01% Tween 20 at pH 7.3.
100 nM labeled decapeptide/250 nM protein in columns 1, 2, 5 - 48. […]
via Kalypsys PinTool. The plates were incubated for 12 min at room temperature, and then read on ViewLux (Perkin-Elmer) High throughput CCD imager using FITC for the fluorescein-labeled decapeptide probe polarization filter sets. […]
A general note: qHTS replaces the single test concentration by a dilution series.
Consider `O=[N+]([O-])C(Cl)(Cl)Cl`, for which the activity change, negative = inhibition was inactive: -1.01%.
Regarding `CN(CCCl)CCCl`, the activity change, negative = inhibition was inactive: -0.783%.
